{"source": "patent US20200071357A1", "about": "“ANTIMICROBIAL PEPTIDES” (UNIVERSITETET I TROMSØ - NORGES ARKTISKE UNIVERSITET, priority 2016, published 2020)", "tested_on": "human red blood cells", "assay": "Haemolytic assay", "format": "cell-based", "conditions": "at concentrations as low as 6.3 μM", "protocol": "Selected synthesised peptide analogues were also screened for haemolytic activity using human red blood cells as described previously (Sperstad, S. V., et al. (2009) Dev. Comp. Immunol. 33, 583-591). The assay was performed on 96-well U-shaped microtiter plates (Nagle Nunc) with 50 μl peptide sample, 40 μl phosphate-buffered saline (PBS) and 10 μl red blood cells. After one hour of incubation at 37° C. in a shaker, the plate was centrifuged at 200 g for 5 min and the supernatants (60 μl) were carefully transferred to a new flat-bottomed polycarbonate microtiter plate (Nagle Nunc) and the release of haemoglobin (absorbance at 550 nm) was measured on a Synergy H1 multimode reader (BioTek, Vt., USA). Cell suspension added 0.05% Triton X-100 (Sigma-Aldrich, Mo., USA) in PBS served as positive (100% haemolysis) control and cell suspension added PBS served as negative (0% haemolysis, blank) control. The percent haemolysis was calculated using the formula [(Asample-Abaseline)/(Atriton-Abaseline)]×100. The cytotoxic peptide melittin (Sigma-Aldrich) was used as a positive control peptide and for comparison. The experiment was performed in triplicates with peptide concentrations ranging from 200 μM to 1.56 μM in two-fold dilutions.", "data": [{"smiles": "CC[C@H](C)[C@H](NC(=O)CN)C(=O)NCC(=O)N[C@@H](C)C(=O)N[C@H](C(=O)N[C@@H](CC(C)C)C(=O)N[C@@H](CCCCN)C(=O)N[C@H](C(=O)N[C@@H](CC(C)C)C(=O)N[C@H](C(=O)N[C@H](C(=O)NCC(=O)N[C@@H](CC(C)C)C(=O)N1CCC[C@H]1C(=O)N[C@@H](C)C(=O)N[C@@H](CC(C)C)C(=O)N[C@H](C(=O)N[C@@H](CO)C(=O)N[C@@H](Cc1c[nH]c2ccccc12)C(=O)N[C@H](C(=O)N[C@@H](CCCCN)C(=O)N[C@@H](CCCNC(=N)N)C(=O)N[C@@H](CCCCN)C(=O)N[C@@H](CCCNC(=N)N)C(=O)N[C@@H](CCC(N)=O)C(=O)N[C@@H](CCC(N)=O)C(N)=O)[C@@H](C)CC)[C@@H](C)CC)[C@@H](C)O)[C@@H](C)O)C(C)C)C(C)C", "note": "[melittin, reference compound]", "values": [{"measurement": "haemolysis", "result": 100, "unit": "%"}]}]}
